This passage reports IC50 results from ChEMBL document CHEMBL1152225, “Optimization of a series of potent and selective ketone histone deacetylase inhibitors” (Bioorg Med Chem Lett, 2008).

A value given as a limit tells only on which side of the number the result lay.

This assay addresses T1, Histone deacetylase 8 (Homo sapiens, UniProt Q9BY41).
T1 sequence (Q9BY41 whole entry): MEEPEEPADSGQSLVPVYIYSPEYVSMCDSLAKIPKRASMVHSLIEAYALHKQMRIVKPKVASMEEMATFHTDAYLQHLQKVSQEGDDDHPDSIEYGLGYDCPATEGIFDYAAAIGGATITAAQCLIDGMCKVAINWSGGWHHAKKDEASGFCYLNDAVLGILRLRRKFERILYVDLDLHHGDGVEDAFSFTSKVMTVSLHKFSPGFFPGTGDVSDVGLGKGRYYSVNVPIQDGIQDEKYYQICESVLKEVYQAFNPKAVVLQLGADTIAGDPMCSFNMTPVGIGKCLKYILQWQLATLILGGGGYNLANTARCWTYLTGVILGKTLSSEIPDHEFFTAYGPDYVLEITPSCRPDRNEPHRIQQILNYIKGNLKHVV
The assay can be described thus: Inhibition of HDAC8.

As to `O=C(CCCCCCC(=O)Nc1ccccc1)NO` [VORINOSTAT], the IC50 was more than 1000 nM.

Broadly, the IC50 is the concentration that inhibits the measured activity by half. Higher therefore signals lower potency.
